Measured values taken from PMC8227400, “Novel N-Arylsulfonylindoles Targeted as Ligands of the 5-HT6 Receptor. Insights on the Influence of C-5 Substitution on Ligand Affinity” (Pharmaceuticals, 2021).

Amino acid sequences for entries named in this document (tags omitted).
UniProt P50406, whole entry: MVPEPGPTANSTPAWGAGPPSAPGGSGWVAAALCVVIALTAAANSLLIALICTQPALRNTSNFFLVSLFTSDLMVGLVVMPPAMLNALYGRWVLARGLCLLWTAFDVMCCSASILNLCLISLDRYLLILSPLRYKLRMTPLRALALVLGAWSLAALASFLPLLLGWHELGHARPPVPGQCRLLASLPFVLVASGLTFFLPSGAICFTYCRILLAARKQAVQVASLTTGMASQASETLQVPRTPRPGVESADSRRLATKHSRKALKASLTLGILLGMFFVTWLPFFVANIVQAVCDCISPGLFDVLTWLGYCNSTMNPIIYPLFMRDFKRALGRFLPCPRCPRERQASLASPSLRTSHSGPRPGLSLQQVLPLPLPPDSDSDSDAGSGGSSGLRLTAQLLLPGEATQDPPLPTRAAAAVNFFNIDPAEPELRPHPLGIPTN

Molecular target: T1, human 5-HT6 receptor (Homo sapiens, UniProt P50406)
Assay: biochemical
Details: not given

Ki	SMILES
0.683 µM	O=S(=O)(c1cccc2ccccc12)n1cc(C(O)CN2CCOCC2)c2cc(F)ccc21 (stereo not drawn) [4f, 1-(5-fluoro-1-(naphthalen-1-ylsulfonyl)-1H-indol-3-yl)-2-morpholinoethan-1-ol]
0.153 µM	COc1ccc2c(c1)c(C(O)CN1CCN(c3ccccn3)CC1)cn2S(=O)(=O)c1cccc2ccccc12 (stereo not drawn) [4n, 1-(5-methoxy-1-(naphthalen-1-ylsulfonyl)-1H-indol-3-yl)-2-(4-(pyridin-2-yl)piperazin-1-yl)ethan-1-ol]
0.167 µM	COc1ccc2c(c1)c(C(O)CN1CCN(c3ccccc3OC)CC1)cn2S(=O)(=O)c1ccc(Br)s1 (stereo not drawn) [4r, 1-(1-((5-bromothiophen-2-yl)sulfonyl)-5-methoxy-1H-indol-3-yl)-2-(4-(2-methoxyphenyl)piperazin-1-yl)ethan-1-ol]
0.27 µM	COc1ccc(S(=O)(=O)n2cc(C(O)CN3CCN(c4ccccc4OC)CC3)c3cc(OC)ccc32)cc1 (stereo not drawn) [4u, 1-(5-methoxy-1-((4-methoxyphenyl)sulfonyl)-1H-indol-3-yl)-2-(4-(2-methoxyphenyl)piperazin-1-yl)ethan-1-ol]
0.801 µM	O=S(=O)(c1cccc2ccccc12)n1cc(C(O)CN2CCN(c3ccccn3)CC2)c2cc(F)ccc21 (stereo not drawn) [4e, 1-(5-fluoro-1-(naphthalen-1-ylsulfonyl)-1H-indol-3-yl)-2-(4-(pyridin-2-yl)piperazin-1-yl)ethan-1-ol]
0.381 µM	COc1ccccc1N1CCN(CC(O)c2cn(S(=O)(=O)c3ccc(Br)s3)c3ccc(F)cc23)CC1 (stereo not drawn) [4i, 1-(1-((5-bromothiophen-2-yl)sulfonyl)-5-fluoro-1H-indol-3-yl)-2-(4-(2-methoxyphenyl)piperazin-1-yl)ethan-1-ol]
0.0583 µM	COc1ccccc1N1CCN(CC(O)c2cn(S(=O)(=O)c3cccc4ccccc34)c3ccc(F)cc23)CC1 (stereo not drawn) [4d, 1-(5-fluoro-1-(naphthalen-1-ylsulfonyl)-1H-indol-3-yl)-2-(4-(2-methoxyphenyl)piperazin-1-yl)ethan-1-ol]
0.972 µM	COc1ccc2c(c1)c(C(O)CN1CCN(c3ccccc3OC)CC1)cn2S(=O)(=O)c1ccc(C)cc1 (stereo not drawn) [4o, 1-(5-methoxy-1-tosyl-1H-indol-3-yl)-2-(4-(2-methoxyphenyl)piperazin-1-yl)ethan-1-ol]
1.44 µM	O=S(=O)(c1cccc2ccccc12)n1cc(C(O)CN2CCN(c3ncccn3)CC2)c2cc(F)ccc21 (stereo not drawn) [4g, 1-(5-fluoro-1-(naphthalen-1-ylsulfonyl)-1H-indol-3-yl)-2-(4-(pyrimidin-2-yl)piperazin-1-yl)ethan-1-ol]
0.85 µM	COc1ccc(S(=O)(=O)n2cc(C(O)CN3CCN(c4ccccc4OC)CC3)c3cc(F)ccc32)cc1 (stereo not drawn) [4h, 1-(5-fluoro-1-((4-methoxyphenyl)sulfonyl)-1H-indol-3-yl)-2-(4-(2-methoxyphenyl)piperazin-1-yl)ethan-1-ol]
0.289 µM	COc1ccc2c(c1)c(C(O)CN1CCN(c3ccccc3OC)CC1)cn2S(=O)(=O)c1ccc(I)cc1 (stereo not drawn) [4j, 1-(1-((4-iodophenyl)sulfonyl)-5-methoxy-1H-indol-3-yl)-2-(4-(2-methoxyphenyl)piperazin-1-yl)ethan-1-ol]
0.39 µM	COc1ccccc1N1CCN(CC(O)c2cn(S(=O)(=O)c3ccc(I)cc3)c3ccc(F)cc23)CC1 (stereo not drawn) [4a, 1-(5-fluoro-1-((4-iodophenyl)sulfonyl)-1H-indol-3-yl)-2-(4-(2-methoxyphenyl)piperazin-1-yl) ethan-1-ol]
3.63 µM	O=S(=O)(c1ccc(I)cc1)n1cc(C(O)CN2CCN(c3ccccn3)CC2)c2cc(F)ccc21 (stereo not drawn) [4b, 1-(5-fluoro-1-((4-iodophenyl)sulfonyl)-1H-indol-3-yl)-2-(4-(pyridin-2-yl)piperazin-1-yl)ethan-1-ol]
2.19 µM	COc1ccc2c(c1)c(C(O)CN1CCN(c3ccccn3)CC1)cn2S(=O)(=O)c1ccc(C)cc1 (stereo not drawn) [4p, 1-(5-methoxy-1-tosyl-1H-indol-3-yl)-2-(4-(pyridin-2-yl)piperazin-1-yl)ethan-1-ol]
12.5 µM	O=S(=O)(c1ccc(I)cc1)n1cc(C(O)CN2CCOCC2)c2cc(F)ccc21 (stereo not drawn) [4c, 1-(5-fluoro-1-((4-iodophenyl)sulfonyl)-1H-indol-3-yl)-2-morpholinoethan-1-ol]
2.19 µM	COc1ccc(S(=O)(=O)n2cc(C(O)CN3CCN(c4ccccn4)CC3)c3cc(OC)ccc32)cc1 (stereo not drawn) [4v, 1-(5-methoxy-1-((4-methoxyphenyl)sulfonyl)-1H-indol-3-yl)-2-(4-(pyridin-2-yl)piperazin-1-yl)ethan-1-ol]
0.16 µM	COc1ccc2c(c1)c(C(O)CN1CCN(c3ccccc3OC)CC1)cn2S(=O)(=O)c1cccc2ccccc12 (stereo not drawn) [4l, 1-(5-methoxy-1-(naphthalen-1-ylsulfonyl)-1H-indol-3-yl)-2-(4-(2-methoxyphenyl)piperazin-1-yl)ethan-1-ol]

SMILES	Ki
COc1ccc2c(c1)c(C(O)CN1CCOCC1)cn2S(=O)(=O)c1ccc(I)cc1 (stereo not drawn) [4k, 1-(1-((4-iodophenyl)sulfonyl)-5-methoxy-1H-indol-3-yl)-2-morpholinoethan-1-ol]	0.403 µM
COc1ccc(S(=O)(=O)n2cc(C(O)CN3CCOCC3)c3cc(OC)ccc32)cc1 (stereo not drawn) [4t, 1-(5-methoxy-1-((4-methoxyphenyl)sulfonyl)-1H-indol-3-yl)-2-morpholinoethan-1-ol]	7.49 µM
COc1ccc2c(c1)c(C(O)CN1CCOCC1)cn2S(=O)(=O)c1cccc2ccccc12 (stereo not drawn) [4m, 1-(5-methoxy-1-(naphthalen-1-ylsulfonyl)-1H-indol-3-yl)-2-morpholinoethan-1-ol]	0.247 µM
COc1ccc2c(c1)c(C(O)CN1CCOCC1)cn2S(=O)(=O)c1ccc(Br)s1 (stereo not drawn) [4s, 1-(1-((5-bromothiophen-2-yl)sulfonyl)-5-methoxy-1H-indol-3-yl)-2-morpholinoethan-1-ol]	0.13 µM
COc1ccc2c(c1)c(C(O)CN1CCOCC1)cn2S(=O)(=O)c1ccc(C)cc1 (stereo not drawn) [4q, 1-(5-methoxy-1-tosyl-1H-indol-3-yl)-2-morpholinoethan-1-ol]	4.02 µM

Molecular target: T1, human 5-HT6 receptor
Assay: not given
Details: ratio of Ki to that of PUC-10 (14.6 nM)

diminished affinity compared to PUC-10	SMILES
4 fold	COc1ccccc1N1CCN(CC(O)c2cn(S(=O)(=O)c3cccc4ccccc34)c3ccc(F)cc23)CC1 (stereo not drawn) [4d, 1-(5-fluoro-1-(naphthalen-1-ylsulfonyl)-1H-indol-3-yl)-2-(4-(2-methoxyphenyl)piperazin-1-yl)ethan-1-ol]
11 fold	COc1ccc2c(c1)c(C(O)CN1CCN(c3ccccc3OC)CC1)cn2S(=O)(=O)c1cccc2ccccc12 (stereo not drawn) [4l, 1-(5-methoxy-1-(naphthalen-1-ylsulfonyl)-1H-indol-3-yl)-2-(4-(2-methoxyphenyl)piperazin-1-yl)ethan-1-ol]
